Test results reported in paper doi:10.1101/2020.01.19.911941 (bioRxiv, 2020).

Target: T1, human PD-L2 (#10292-H08H, SinoBiological) (human, UniProt Q9BQ51)
T1 sequence: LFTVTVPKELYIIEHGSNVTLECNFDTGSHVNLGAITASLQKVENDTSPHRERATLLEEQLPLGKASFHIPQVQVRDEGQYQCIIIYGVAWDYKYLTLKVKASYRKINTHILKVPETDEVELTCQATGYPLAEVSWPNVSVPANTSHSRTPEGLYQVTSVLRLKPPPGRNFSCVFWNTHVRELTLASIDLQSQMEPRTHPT
Assay: SPR

B1: sPD-1 WT Fc (Fc fusion)
chain: LDSPDRPWNPPTFSPALLVVTEGDNATFTCSFSNTSESFVLNWYRMSPSNQTDKLAAFPEDRSQPGQDCRFRVTQLPNGRDFHMSVVRARRNDSGTYLCGAISLAPKAQIKESLRAELRVTERRAEVPTAHPSPSPRPAGQFQTLV
binding result: binds
